This passage reports IC50 results from patent US7029865B2, “DNA molecules encoding the melanocortin 4 receptor protein from rhesus monkey” (Merck & Co., Inc., priority 1998, dated 2006).

Sequences of proteins named here, by UniProt entry; tags and fusion partners are left off. A change or cut given only in a name is not applied to a line headed by its entry.
UniProt P33032: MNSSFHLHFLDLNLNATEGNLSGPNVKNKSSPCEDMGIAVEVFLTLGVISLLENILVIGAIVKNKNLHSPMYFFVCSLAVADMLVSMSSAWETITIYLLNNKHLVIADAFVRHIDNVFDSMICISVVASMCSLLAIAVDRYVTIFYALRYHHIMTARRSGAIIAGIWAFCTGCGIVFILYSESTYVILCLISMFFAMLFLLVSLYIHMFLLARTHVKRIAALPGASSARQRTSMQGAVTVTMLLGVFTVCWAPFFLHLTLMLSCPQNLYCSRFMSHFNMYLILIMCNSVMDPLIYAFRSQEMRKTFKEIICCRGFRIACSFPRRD

This test concerns the target T1, hMC-5R (Homo sapiens, UniProt P33032).
T1 construct: host or cells: cells expressing the human receptor
The test is described as follows: Competitive binding assay, [125I]-NDP alpha MSH, membranes from cells expressing hMC-5R. To be noted: read-out: IC50 hMC-5R.

pIC50: −log10 of the molar value.

The pIC50 is the negative decadic logarithm of the IC50, by convention in mol/L. Turning to NDP-alpha-MSH, the negative-log IC50 (pIC50) is 9.40.
On to MTII, for which the pIC50 was 9.05.
